# Measured values reported in PubChem BioAssay AID624263 (National Center for Advancing Translational Sciences (NCATS), 2012).
# Several values for one entry are separate records, joined by “and”; a condition that tells them apart may be missing. Equal entries are not always repeated. Only a part is listed here, and it is no random draw. Some tests of the compounds listed are not included; inactive here does not mean inactive elsewhere. Activity calls are given as the source filed them. Calls follow the shape of the dose curve; as a rule, active = well fitted activation curve with a large enough effect; inconclusive = small, poorly fitted or top-dose-only effect; inactive = flat fitted curve, though single readings scatter; cell line not stated here.
# Assay: A Quantitative High throughput Screen to Identify Chemical Modulators of PINK1 Expression; also: % of control where 0% means no effect; nearly all actives have a fitted effect of over 65% in size
# Conditions: PINK1 immunofluorescence, high-content cytometry, 24 h; at 76.6 µM (top of the series)
row,Structure (SMILES),activation (PINK1 increase)
1,CN(C)C1(CNC(=O)c2ccccc2F)CCCCC1,inactive: -0.47%
2,Cc1ccc(C(=O)NCC2(N3CCCCC3)CCCCC2)cc1,inactive: 2.75%
3,CC(C)N1C(=O)CC2(CCN(CCOC(=O)C(O)(c3ccccc3)c3ccccc3)CC2)C1=O,inactive: 1.47%
4,CCN(CC)CC(C)C(C)OC(=O)C(O)(c1ccccc1)c1ccccc1 (configuration not stated),inactive: -1.06%
5,CN(C)C1(CNC(=O)c2cccc(Cl)c2)CCCCC1,inactive: -0.193%
6,COc1cc(SC)ccc1C(=O)NCC1(N(C)C)CCCCC1,inactive: 3.27%
7,CN1[C@@H]2CC[C@H]1CC(OC(=O)C(O)(c1ccccc1)c1ccccc1)C2 (some centres not stated),inactive: 0.833%
8,O=C(NCC1(N2CCCCC2)CCCCC1)c1cc([N+](=O)[O-])ccc1Cl,inactive: -0.429%
9,CCN1CCCC(OC(=O)C2(O)c3ccccc3C=Cc3ccccc32)C1 (configuration not stated),inactive: -1.53%
10,Cc1cc(C(=O)NCC2(N3CCCCC3)CCCCC2)ccc1[N+](=O)[O-],inactive: 3.14%
11,O=C(NCC1(N2CCCCC2)CCCCC1)c1cccc(Br)c1,inactive: 0.0765%
12,COc1ccc(C(=O)NCC2(N(C)C)CCCCC2)cc1,inactive: -1.63%
13,CCOc1cccc(C(=O)NCC2(N(C)C)CCCCC2)c1,inactive: 1%
14,C=CCN1CCN(CCOC(=O)C(O)(c2ccccc2)c2ccccc2)CC1,inactive: 1.01%
15,O=C(NCC1(N2CCCCC2)CCCCC1)c1cc(F)c(F)cc1Cl,inactive: 5.31%
16,CCCCOc1ccccc1C(=O)NCC1(N(C)C)CCCCC1,inactive: -0.0513%
17,Cc1ccccc1C(=O)NCC1(N2CCCCC2)CCCCC1,inactive: -0.607%
18,CN(C)C1(CNC(=O)c2ccccc2[N+](=O)[O-])CCCCC1,inactive: 2.09%
19,CN(C)c1ccc(C(=O)NCC2(N(C)C)CCCCC2)cc1,inactive: 0.0703%

row,Structure (SMILES),activation (PINK1 increase)
1,CN(C)C1CCCC1OC(=O)C(O)(c1ccccc1)c1ccccc1 (configuration not stated),inactive: 1.37%
2,O=C(NCC1(N2CCCCC2)CCCCC1)c1cccc(Cl)c1,inactive: -0.837%
3,COc1ccc(C(=O)NCC2(N(C)C)CCCCC2)cc1Cl,inactive: -1.84%
4,COc1cccc(C(=O)NCC2(N3CCCCC3)CCCCC2)c1,inactive: -1.03%
5,COc1ccc(Cl)cc1C(=O)NCC1(N(C)C)CCCCC1,inactive: 0.514%
6,COc1cc(C(=O)NCC2(N(C)C)CCCCC2)c([N+](=O)[O-])cc1OC,inactive: 1.71%
7,CN(C)C1(CNC(=O)c2ccc(Br)cc2)CCCCC1,inactive: -2.2%
8,O=C(CBr)c1ccc(Cl)cc1,inactive: 0.273%
9,CN(C)c1cccc(C(=O)NCC2(N(C)C)CCCCC2)c1,inactive: -0.583%
10,CC(C)Oc1ccc(C(=O)NCC2(N(C)C)CCCCC2)cc1,inactive: -1.69% and inactive: 2.05%
11,O=C(OCCN1CCCC1)C(O)(c1ccccc1)c1ccccc1,inactive: 0.673%
12,Cc1cccc(C(=O)NCC2(N(C)C)CCCCC2)c1,inactive: 0.907%
13,COc1cc(C(=O)NCC2(N(C)C)CCCCC2)cc(OC)c1OC,inactive: 0.669%
14,COc1ccc(Br)c(C(=O)NCC2(N3CCCCC3)CCCCC2)c1,inactive: 1.51%
15,C=C(C)C#CC(O)(C(=O)OC1CCN(C)CC1)c1ccccc1 (configuration not stated),inactive: 3.37%
16,CC(C)COc1ccc(C(=O)NCC2(N(C)C)CCCCC2)cc1,inactive: -1.52%
17,O=C(OC1CN2CCC1CC2)C(CO)(c1ccccc1)c1ccccc1 (configuration not stated),inactive: 0.419%
18,COc1cccc(C(=O)NCC2(N3CCOCC3)CCCCC2)c1,inactive: -1.06%
